GIV Gai3 FP: blocks GIV peptide binding to rat Galpha-i3. P08753. Galpha-i3/FITC-GIV peptide fluorescence polarization, 90 min; stronger effect = lower value; scaled: aluminum fluoride 0%, vehicle 100%. percent of control (FP), % (test concentration not listed). actives 0.42% (n = 210,000). AID 1224905;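 active means replicate mean at 85% of control or lower, very high polarization wells dropped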;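 further: wells of about 15 µL received 100 nL stock; the first replicate is given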
HCMV UL50-53 inh: inhibitors of HCMV UL50-UL53 interaction, biochemical, HTRF. inhibition, % (concentration not given with the values). normalized percent inhibition. actives 0.15% (n = 190,000). HCMV UL50-UL53 nuclear egress complex (human cytomegalovirus). AID 1918969, 2023; in the data active means inhibition above about 27%, passing the limit was not always enough
* hit, by the source's call; / = not tested or not shown. Sampled rows, rich in hits. Any-hit rate of the full collection: about 0.46%.

Cc1cc(=O)n2nc(N3CCC(C(=O)NCCc4ccc(Cl)cc4)CC3)sc2n1
  GIV Gai3 FP: 106.3 | HCMV UL50-53 inh: -6.6
CCOC(=O)C1=NN(c2ccc(OC)cc2)C2C(=O)N(c3ccccc3)C(=O)C12 (stereo not given)
  GIV Gai3 FP: 107.1 | HCMV UL50-53 inh: /
Cc1cc(=O)oc2c(/C=N\NC(=O)c3ccc(Br)cc3O)c(O)ccc12
  GIV Gai3 FP: 274.1 | HCMV UL50-53 inh: -19.4
Cc1ccc2nc(Sc3ccccc3)c(/C=C3\SC(=S)N(C)C3=O)c(=O)n2c1
  GIV Gai3 FP: -36.2* | HCMV UL50-53 inh: /
CNc1nc2ccccn2c(=O)c1/C=C1\SC(=S)N(C)C1=O
  GIV Gai3 FP: 138.3 | HCMV UL50-53 inh: /
Cc1nc(-c2ccc(C(=O)N3CCC(C(=O)N4CCc5ccccc54)CC3)cc2)no1
  GIV Gai3 FP: 98.1 | HCMV UL50-53 inh: -25.6
CCc1ccc(NC(=O)c2sc3nc(-c4ccccc4)cn3c2C)cc1
  GIV Gai3 FP: 114.1 | HCMV UL50-53 inh: /
O=C(c1cc(-c2ccccc2)nc2ccccc12)N1CCN(Cc2ccc3c(c2)OCO3)CC1
  GIV Gai3 FP: 99.1 | HCMV UL50-53 inh: -18.0
CCc1cccc2c1=NC(=O)C=2c1c(C)[nH]n(-c2ccccc2)c1=O
  GIV Gai3 FP: 103.8 | HCMV UL50-53 inh: 0.9
Cc1[nH]n(-c2ccccc2)c(=O)c1C1=c2ccccc2=NC1=O
  GIV Gai3 FP: / | HCMV UL50-53 inh: 67.7*
Cc1ccc(C)c(NC(=O)COC(=O)CC2CC3CCC2C3)c1 (stereo not given)
  GIV Gai3 FP: / | HCMV UL50-53 inh: 7.7
Cc1cccc(NC(=O)CS(=O)(=O)c2cn(C)c3ccccc23)c1
  GIV Gai3 FP: 103.1 | HCMV UL50-53 inh: -41.6
O[N+]1=CC=CCC1=S.On1ccccc1=S.[Zn]
  GIV Gai3 FP: / | HCMV UL50-53 inh: 93.1*
CCOc1ccc(C(=O)c2[nH]c(=O)c3ccccc3c2O)cc1
  GIV Gai3 FP: 88.6 | HCMV UL50-53 inh: 61.2*
CCOc1ccc(C(=O)c2cccs2)cc1
  GIV Gai3 FP: 98.6 | HCMV UL50-53 inh: -9.1
O=C1CC(c2cccc(Cl)c2Cl)c2cc(Br)c3ccccc3c2N1 (stereo not given)
  GIV Gai3 FP: 107.1 | HCMV UL50-53 inh: /
CC1CS(=O)(=O)N(c2ccc(S(=O)(=O)N3CCCC3)cc2)C1=O (stereo not given)
  GIV Gai3 FP: 105.4 | HCMV UL50-53 inh: 12.0
COc1cc2cc3c4c(cc(OC)c(OC)c4c2cc1OC)CCN3C
  GIV Gai3 FP: / | HCMV UL50-53 inh: 67.4*
COc1cc2ccc3c(CCN(C)C)cc(OC)c(OC)c3c2cc1OC
  GIV Gai3 FP: 106.3 | HCMV UL50-53 inh: /
NC(=O)/C=C/C(=O)NCc1ccccc1
  GIV Gai3 FP: 101.2 | HCMV UL50-53 inh: -2.3
O=C1/C(=C/c2cn(-c3ccccc3)nc2-c2ccc(Cl)cc2)SC(=S)N1C1CCS(=O)(=O)C1 (stereo not given)
  GIV Gai3 FP: 105.0 | HCMV UL50-53 inh: -6.9
O=C1/C(=C/C2=Cc3ccccc3OC2)SC(=S)N1C1CCS(=O)(=O)C1 (stereo not given)
  GIV Gai3 FP: -34.6* | HCMV UL50-53 inh: -48.0
CCn1c(CCC(=O)NCc2ccc(C)cc2)nc2cc(S(=O)(=O)N(C)C)ccc21
  GIV Gai3 FP: / | HCMV UL50-53 inh: -20.0
Cc1ccc2nc(COc3ccc(NC(=O)Nc4ccc(Cl)cc4)cc3)cc(=O)n2c1
  GIV Gai3 FP: 85.4* | HCMV UL50-53 inh: /
CCOc1ccc(NC(=O)Nc2cccc(OCc3cc(=O)n4cc(Cl)ccc4n3)c2)cc1
  GIV Gai3 FP: 106.9 | HCMV UL50-53 inh: /

Compounds from the list above containing an NH in an aromatic ring:
CCc1cccc2c1=NC(=O)C=2c1c(C)[nH]n(-c2ccccc2)c1=O
  GIV Gai3 FP: 103.8 | HCMV UL50-53 inh: 0.9
Cc1[nH]n(-c2ccccc2)c(=O)c1C1=c2ccccc2=NC1=O
  GIV Gai3 FP: / | HCMV UL50-53 inh: 67.7*
CCOc1ccc(C(=O)c2[nH]c(=O)c3ccccc3c2O)cc1
  GIV Gai3 FP: 88.6 | HCMV UL50-53 inh: 61.2*

Later entries
O=c1oc2ccccc2cc1-c1nnc(-c2cccc(Cl)c2)o1
  GIV Gai3 FP: 101.3 | HCMV UL50-53 inh: 5.4
CCCCCCc1cc2cc(-c3nnc(-c4cccc(Cl)c4)o3)c(=O)oc2cc1O
  GIV Gai3 FP: 7.6* | HCMV UL50-53 inh: -49.0
CSc1nc(Nc2cccc(C)c2)c(C#N)c(-c2ccccc2)n1
  GIV Gai3 FP: 102.4 | HCMV UL50-53 inh: 48.4*
COc1ccc(Nc2nc(SC)nc(-c3ccccc3)c2C#N)cc1OC
  GIV Gai3 FP: 99.5 | HCMV UL50-53 inh: -13.3
O=c1[nH]c2c(s1)C=Nc1cc3ccccc3cc1N2
  GIV Gai3 FP: 59.2* | HCMV UL50-53 inh: -36.4
CCC1(C)Nc2ccccc2-c2nc3ccccc3n21 (stereo not given)
  GIV Gai3 FP: 103.9 | HCMV UL50-53 inh: /
CCC1CCCCN1Cc1c(O)ccc2cc(-c3nc(C)cs3)c(=O)oc12 (stereo not given)
  GIV Gai3 FP: / | HCMV UL50-53 inh: -56.2
CC1CCCCN1Cc1c(O)ccc2cc(-c3nc4ccccc4s3)c(=O)oc12 (stereo not given)
  GIV Gai3 FP: -31.8* | HCMV UL50-53 inh: -60.9
CC(C)(C)c1ccc(-c2cc(C3CCNCC3)[nH]n2)cc1
  GIV Gai3 FP: 101.1 | HCMV UL50-53 inh: -18.6
O=C(Oc1ccccc1OC(=O)c1ccccc1)c1ccccc1
  GIV Gai3 FP: 100.5 | HCMV UL50-53 inh: /
O=C(Oc1cccc2c1C(=O)C=CC2=O)c1ccccc1
  GIV Gai3 FP: 104.1 | HCMV UL50-53 inh: 65.1*
Cc1nnc(N2C(=O)C(O)=C(C(=O)c3cccs3)C2c2ccccc2F)s1 (stereo not given)
  GIV Gai3 FP: -9.4* | HCMV UL50-53 inh: -60.6
O=C(C1=C(O)C(=O)N(c2ccccn2)C1c1ccccc1)c1cccs1 (stereo not given)
  GIV Gai3 FP: / | HCMV UL50-53 inh: -33.8
CC(=O)Nc1c2c3c(cccc3n(C)c1=O)C(=O)c1ccccc1-2
  GIV Gai3 FP: 93.6 | HCMV UL50-53 inh: /
COCCCNc1c2c3c(cccc3n(C)c1=O)C(=O)c1ccccc1-2
  GIV Gai3 FP: -62.4* | HCMV UL50-53 inh: /
COc1ccc(NC(=O)c2nnn(Cc3ccc(Br)cc3F)c2N)c(OC)c1
  GIV Gai3 FP: 103.3 | HCMV UL50-53 inh: -9.9
O=C(c1cncc(NS(=O)(=O)c2ccc(F)cc2)c1)N1CCc2ccccc21
  GIV Gai3 FP: 98.5 | HCMV UL50-53 inh: -25.6
CCCCc1cc(=O)oc2c(CN(C)C)c(O)ccc12
  GIV Gai3 FP: 105.6 | HCMV UL50-53 inh: -29.6
CC[C@@]1(O)C(=O)OCc2c1cc1n(c2=O)Cc2cc3c(CN(C)C)c(O)ccc3nc2-1
  GIV Gai3 FP: -6.9* | HCMV UL50-53 inh: -68.9
COc1ccccc1C(=O)Nc1sc(Nc2ccccc2)nc1C(N)=O
  GIV Gai3 FP: 100.5 | HCMV UL50-53 inh: /
O=C(O)CC1(CC(=O)N2CCN(C(c3ccccc3)c3ccccc3)CC2)CCCC1
  GIV Gai3 FP: 103.8 | HCMV UL50-53 inh: -6.5
